From US20240336643A1, “BIFUNCTIONAL COMPOUNDS THAT DEGRADE ALK AND USES THEREOF” (DANA-FARBER CANCER INSTITUTE, INC., priority 2021, published 2024) come the findings set out here.

Protein sequences, listed by entry. Tags and fused reporters are not part of them. Lines headed by an entry give the natural chain unless they say otherwise; changes in a name come on top. Chains listed by the source or under a name are the forms on record and can include a tag or linker.
HiBiT Wild type Variant 1 EML4-ALK (Homo sapiens, UniProt Q9UM73), UniProt Q9UM73, with tags, fused parts or gaps: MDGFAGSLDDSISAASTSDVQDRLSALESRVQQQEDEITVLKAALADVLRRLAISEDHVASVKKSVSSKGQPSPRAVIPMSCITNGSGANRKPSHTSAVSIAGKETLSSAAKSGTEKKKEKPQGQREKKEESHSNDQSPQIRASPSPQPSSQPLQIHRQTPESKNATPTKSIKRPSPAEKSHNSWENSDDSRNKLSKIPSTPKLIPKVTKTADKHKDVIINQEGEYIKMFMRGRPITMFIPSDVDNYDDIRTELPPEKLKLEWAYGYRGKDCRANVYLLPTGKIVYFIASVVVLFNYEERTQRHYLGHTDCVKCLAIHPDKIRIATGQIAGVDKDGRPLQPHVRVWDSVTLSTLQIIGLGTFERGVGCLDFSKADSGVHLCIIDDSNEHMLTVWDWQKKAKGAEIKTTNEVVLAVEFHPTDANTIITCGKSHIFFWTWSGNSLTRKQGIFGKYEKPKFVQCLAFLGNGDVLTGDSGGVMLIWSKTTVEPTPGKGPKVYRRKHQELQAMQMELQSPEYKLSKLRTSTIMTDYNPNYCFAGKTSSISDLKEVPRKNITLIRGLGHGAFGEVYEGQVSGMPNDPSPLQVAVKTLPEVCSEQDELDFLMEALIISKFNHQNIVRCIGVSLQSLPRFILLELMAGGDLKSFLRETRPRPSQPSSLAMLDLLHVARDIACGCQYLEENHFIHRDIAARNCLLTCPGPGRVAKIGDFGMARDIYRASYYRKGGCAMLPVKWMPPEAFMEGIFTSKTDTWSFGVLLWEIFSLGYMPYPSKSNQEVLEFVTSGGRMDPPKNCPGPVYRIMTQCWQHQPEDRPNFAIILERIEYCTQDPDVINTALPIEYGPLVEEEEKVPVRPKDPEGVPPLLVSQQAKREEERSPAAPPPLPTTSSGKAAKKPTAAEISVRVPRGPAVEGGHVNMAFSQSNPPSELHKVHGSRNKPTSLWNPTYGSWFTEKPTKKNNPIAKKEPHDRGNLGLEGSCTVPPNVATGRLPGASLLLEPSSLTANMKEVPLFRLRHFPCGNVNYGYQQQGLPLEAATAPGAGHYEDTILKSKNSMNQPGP
HiBiT Wild type Variant 3 EML4-ALK (Homo sapiens, UniProt Q9UM73), UniProt Q9UM73, with tags, fused parts or gaps: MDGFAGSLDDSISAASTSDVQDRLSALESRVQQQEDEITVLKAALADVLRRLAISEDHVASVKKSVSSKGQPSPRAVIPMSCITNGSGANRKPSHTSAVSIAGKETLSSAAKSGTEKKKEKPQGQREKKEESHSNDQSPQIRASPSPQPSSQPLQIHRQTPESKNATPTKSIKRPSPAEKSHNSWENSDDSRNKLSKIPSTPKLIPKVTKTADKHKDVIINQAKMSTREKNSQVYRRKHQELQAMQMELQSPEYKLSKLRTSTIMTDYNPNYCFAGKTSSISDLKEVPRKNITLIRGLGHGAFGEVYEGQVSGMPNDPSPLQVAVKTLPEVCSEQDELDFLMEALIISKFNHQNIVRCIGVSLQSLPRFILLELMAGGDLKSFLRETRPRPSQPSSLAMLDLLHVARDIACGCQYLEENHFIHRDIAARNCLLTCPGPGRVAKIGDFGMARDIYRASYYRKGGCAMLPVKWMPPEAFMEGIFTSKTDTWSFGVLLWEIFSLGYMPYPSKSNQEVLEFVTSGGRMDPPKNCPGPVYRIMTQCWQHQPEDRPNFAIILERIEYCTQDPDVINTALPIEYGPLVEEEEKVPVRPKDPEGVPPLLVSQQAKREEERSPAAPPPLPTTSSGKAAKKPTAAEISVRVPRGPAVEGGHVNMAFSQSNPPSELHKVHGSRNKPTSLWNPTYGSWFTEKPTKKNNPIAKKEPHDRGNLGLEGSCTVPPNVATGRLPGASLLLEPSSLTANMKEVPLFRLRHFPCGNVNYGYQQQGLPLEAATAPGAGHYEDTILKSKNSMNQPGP

Test [1] concerns the target HiBiT Wild type Variant 1 EML4-ALK (Homo sapiens, UniProt Q9UM73). To be noted: read-out: BAF3 Cellular Degradation - HiBiT Wild type Variant 1 EML4-ALK: DC50; Ba/F3 cells, 0.0003-2 μM, 4 hours. (With HiBiT, luminescence reflects the tagged protein that the partner subunit can reach.)
Test [2] addresses HiBiT Wild type Variant 3 EML4-ALK (Homo sapiens, UniProt Q9UM73). The settings on record: read-out: BAF3 Cellular Degradation - HiBiT Wild type Variant 3 EML4-ALK: DC50; Ba/F3 cells, 0.0003-2 μM, 4 hours.

Turning to `CNC(=O)c1ccccc1Nc1nc(Nc2cc(C)c(C3CCN(CC4CCN(c5ccc6c(c5)C(=O)N(C5CCC(=O)NC5=O)C6=O)CC4)CC3)cc2OC)ncc1C(F)(F)F` (stereo not drawn) [Compound 17, 2-{[2-({4-[1-({1-[2-(2,6-dioxopiperidin-3-yl)-1,3-dioxo-2,3-dihydro-1H-isoindol-5-yl]piperidin-4-yl}methyl)piperidin-4-yl]-2-methoxy-5-methylphenyl}amino)-5-(trifluoromethyl)pyrimidin-4-yl]amino}-N-methylbenzamide], the DC50 in test [1] and in test [2] was 2 nM throughout.

`COc1cc(C2CCN(CCC3CN(c4ccc5c(c4)C(=O)N(C4CCC(=O)NC4=O)C5=O)C3)CC2)c(C)cc1Nc1ncc(Cl)c(Nc2ccccc2S(=O)(=O)C(C)C)n1` (stereo not drawn) [Compound 2]: the figures for the DC50 in test [1] and in test [2] were 2 nM and 1 nM, respectively.

Turning to `COc1cc(C2CCN(C3CN(c4ccc5c(c4)C(=O)N(C4CCC(=O)NC4=O)C5=O)C3)CC2)c(C)cc1Nc1ncc(Cl)c(Nc2ccccc2S(=O)(=O)C(C)C)n1` (stereo not drawn) [Compound 15, 5-[3-(4-{4-[(5-chloro-4-{[2-(propane-2-sulfonyl)phenyl]amino}pyrimidin-2-yl)amino]-5-methoxy-2-methylphenyl}piperidin-1-yl)azetidin-1-yl]-2-(2,6-dioxopiperidin-3-yl)-2,3-dihydro-1H-isoindole-1,3-dione], the DC50 (as a rule, the concentration at which degradation of the target reaches its halfway point) in test [1] turned out to be 23 nM; in test [2], 9 nM.

With `CNC(=O)c1ccccc1Nc1nc(Nc2cc(C)c(C3CCN(CC4CCN(c5ccc6c(c5)C(=O)N(C5CCC(=O)NC5=O)C6=O)CC4)CC3)cc2OC(C)C)ncc1C(F)(F)F` (stereo not drawn) [Compound 19, 2-{[2-({4-[1-({1-[2-(2,6-dioxopiperidin-3-yl)-1,3-dioxo-2,3-dihydro-1H-isoindol-5-yl]piperidin-4-yl}methyl)piperidin-4-yl]-5-methyl-2-(propan-2-yloxy)phenyl}amino)-5-(trifluoromethyl)pyrimidin-4-yl]amino}-N-methylbenzamide], the DC50 came out at 26 nM in test [1] and 6 nM in test [2].

`COc1cc(C2CCN(CC3CCN(c4ccc5c(c4)C(=O)N(C4CCC(=O)NC4=O)C5=O)CC3)CC2)c(C)cc1Nc1ncc(Cl)c(Nc2ccccc2S(=O)(=O)C(C)C)n1` (stereo not drawn) [Compound 10, 5-{4-[(4-{4-[(5-chloro-4-{[2-(propane-2-sulfonyl)phenyl]amino]pyrimidin-2-yl)amino]-5-methoxy-2-methylphenyl}piperidin-1-yl)methyl}piperidin-1-yl}-2-(2,6-dioxopiperidin-3-yl)-2,3-dihydro-1H-isoindole-1,3-dione]: the DC50 in test [1] is 25 nM; in test [2], 6 nM. The corresponding values for `CCc1cc2c(cc1C#CCCCN1CCC(c3ccc4c(c3)CN(C3CCC(=O)NC3=O)C4=O)CC1)C(C)(C)c1[nH]c3cc(C#N)ccc3c1C2=O` (stereo not drawn) [Compound 22] are 5 nM and 1 nM. The corresponding values for `CCc1cc2c(cc1CCCCN1CCC(c3ccc4c(c3)CN(C3CCC(=O)NC3=O)C4=O)CC1)C(C)(C)c1[nH]c3cc(C#N)ccc3c1C2=O` (stereo not drawn) [Compound 21] are 7 nM and 2 nM. Regarding `COc1cc(C2CCN(C[C@H]3CCN(c4ccc5c(c4)C(=O)N(C4CCC(=O)NC4=O)C5=O)C3)CC2)c(C)cc1Nc1ncc(Cl)c(Nc2ccccc2S(=O)(=O)C(C)C)n1` (stereo partly drawn) [Compound 8, 5-[(3R)-3-[(4-{4-[(5-chloro-4-{[2-(propane-2-sulfonyl)phenyl]amino}pyrimidin-2-yl)amino]-5-methoxy-2-methylphenyl}piperidin-1-yl)methyl]pyrrolidin-1-yl]-2-(2,6-dioxopiperidin-3-yl)-2,3-dihydro-1H-isoindole-1,3-dione], the DC50 in test [1] is 14 nM. Consider `COc1cc(C2CCN(C[C@@H]3CCN(c4ccc5c(c4)C(=O)N(C4CCC(=O)NC4=O)C5=O)C3)CC2)c(C)cc1Nc1ncc(Cl)c(Nc2ccccc2S(=O)(=O)C(C)C)n1` (stereo partly drawn) [Compound 9], for which the results for the DC50 in test [1] and in test [2] were 8 nM and 5 nM, respectively. The corresponding values for `COc1cc(CN2CCC(O)(c3ccc4c(c3)CN(C3CCC(=O)NC3=O)C4=O)CC2)c(C)cc1Nc1ncc(Cl)c(Nc2ccccc2S(=O)(=O)C(C)C)n1` (stereo not drawn) [Compound 26, 3-(5-(1-(4-((5-chloro-4-((2-(isopropylsulfonyl)phenyl)amino)pyrimidin-2-yl)amino)-5-methoxy-2-methylbenzyl)-4-hydroxypiperidin-4-yl)-1-oxoisoindolin-2-yl)piperidine-2,6-dione] are 57 nM and 9 nM.

`COc1cc(CCN2CCC(O)(c3ccc4c(c3)CN(C3CCC(=O)NC3=O)C4=O)CC2)c(C)cc1Nc1ncc(Cl)c(Nc2ccccc2S(=O)(=O)C(C)C)n1` (stereo not drawn) [Compound 29]: the values for the DC50 in test [1] and in test [2] were 85 nM and 25 nM, respectively. For `COc1cc(C2CCN(CC3CC4(C3)CN(c3ccc5c(c3)C(=O)N(C3CCC(=O)NC3=O)C5=O)C4)CC2)c(C)cc1Nc1ncc(Cl)c(Nc2ccccc2S(=O)(=O)C(C)C)n1` (stereo not drawn) [Compound 16, 5-(6-((4-(4-((5-chloro-4-((2-(isopropylsulfonyl)phenyl)amino)pyrimidin-2-yl)amino)-5-methoxy-2-methylphenyl)piperidin-1-yl)methyl)-2-azaspiro[3.3]heptan-2-yl)-2-(2,6-dioxopiperidin-3-yl)isoindoline-1,3-dione] the same measures were 14 nM and 4 nM. The corresponding values for `CNC(=O)c1ccccc1Nc1nc(Nc2cc(C)c(C3CCN(CC4CN(c5ccc6c(c5)C(=O)N(C5CCC(=O)NC5=O)C6=O)C4)CC3)cc2OC(C)C)ncc1C(F)(F)F` (stereo not drawn) [Compound 18, 2-{[2-({4-[1-({1-[2-(2,6-dioxopiperidin-3-yl)-1,3-dioxo-2,3-dihydro-1H-isoindol-5-yl]azetidin-3-yl}methyl)piperidin-4-yl]-5-methyl-2-(propan-2-yloxy)phenyl}amino)-5-(trifluoromethyl)pyrimidin-4-yl]amino}-N-methylbenzamide] are 22 nM and 6 nM. Take `CCc1cc2c(cc1N1CC(CN3CCC(c4ccc5c(c4)CN(C4CCC(=O)NC4=O)C5=O)CC3)C1)C(C)(C)c1[nH]c3cc(C#N)ccc3c1C2=O` (stereo not drawn) [Compound 23]: the DC50 in test [1] was found to be 26 nM; in test [2] it was 6 nM.
